Results on one molecule are retold here after patent US20210221866A1, “PROTEASE-RESISTANT LIPIDATED GLP-1 ANALOGS” (MEDIMMUNE LIMITED, priority 2015, published 2021).

Amino acid sequences for entries named in this document (tags omitted). Residues count along the entry.
UniProt P43220, 24-463: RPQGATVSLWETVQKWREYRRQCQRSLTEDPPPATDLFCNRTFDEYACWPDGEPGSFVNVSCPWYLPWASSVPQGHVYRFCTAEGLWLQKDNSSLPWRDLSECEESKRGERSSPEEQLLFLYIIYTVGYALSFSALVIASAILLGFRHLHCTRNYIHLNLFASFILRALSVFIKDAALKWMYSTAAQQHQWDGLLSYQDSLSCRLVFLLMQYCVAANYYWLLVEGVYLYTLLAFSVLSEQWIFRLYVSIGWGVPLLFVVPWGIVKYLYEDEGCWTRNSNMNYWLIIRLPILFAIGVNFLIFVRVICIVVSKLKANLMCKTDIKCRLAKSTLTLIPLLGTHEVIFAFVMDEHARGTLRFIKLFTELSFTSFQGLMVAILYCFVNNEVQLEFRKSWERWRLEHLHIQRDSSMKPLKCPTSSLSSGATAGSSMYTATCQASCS

The assay addresses T1, human GLP-1 receptor (GLP-1R) (Homo sapiens, UniProt P43220).
T1 construct: expressed in transfected cells; host or cells: HEK293 cells or CHO cells
Kind of assay: cAMP assay, human GLP-1R cells. The format is cell-based. The procedure:
Sample dilutions are made in duplicate.
A frozen cryo-vial of cells expressing the receptor of interest is thawed rapidly in a water-bath, transferred to pre-warmed assay buffer and spun at 240×g for 5 minutes. Cells are re-suspended in assay buffer at a batch-dependent optimized concentration (e.g. hGCGR cells at 2×10^5 cells/ml, hGLP-1R and hGIPR cells at 1×10^5 cells/ml).
To this, 5 μL cell suspension is added and the plates incubated at room temperature for 30 minutes.
cAMP levels are measured using a commercially available cAMP dynamic 2 HTRF kit (Cisbio, Cat #62AM4PEJ), following the two step protocol as per manufacturer's recommendations. In brief; anti-cAMP cryptate (donor fluorophore) and cAMP-d2 (acceptor fluorophore) are made up separately by diluting each 1/20 in conjugate & lysis buffer provided in the kit. 5 μL anti-cAMP cryptate is added to wells of the assay plate, and 5 μL cAMP-d2 is added to wells except non-specific binding (NSB) wells, to which conjugate and lysis buffer are added. […] EC50 values of the synthetic peptides determined in cAMP assays are then determined.
Data is transformed to % Delta F as described in the manufacturer's guidelines and analyzed by 4-parameter logistic fit to determine EC50 values. […] To compare the balance of activities at the GLP-1R and GCGR between different peptides and across different conditions, these can be correlated, where the EC50's are related to those of comparator peptides.
(cAMP levels reflect the balance of adenylyl cyclase and phosphodiesterase activity.)

pEC50: −log10 of the molar value.

Broadly, the pEC50 is the negative decadic logarithm of the EC50, by convention in mol/L. A word on the EC50: it is the concentration needed to bring the measured effect to its halfway point. Take `CCCCCCCCCCCC(=O)N[C@@H](CCC(=O)NCCOCCOCC(=O)NCCOCCOCC(=O)NCCCC[C@H](NC(=O)[C@H](CCC(=O)O)NC(=O)[C@H](CC(C)C)NC(=O)[C@H](Cc1ccc(O)cc1)NC(=O)[C@H](CO)NC(=O)[C@H](CO)NC(=O)[C@H](CCCCNC(=O)COCCOCCNC(=O)COCCOCCNC(=O)CC[C@H](NC(=O)CCCCCCCCCCC)C(=O)O)NC(=O)[C@H](CC(=O)O)NC(=O)[C@H](CO)NC(=O)[C@@H](NC(=O)[C@](C)(Cc1ccccc1)NC(=O)[C@H](CO)NC(=O)CNC(=O)[C@H](CCC(=O)O)NC(=O)C(C)(C)NC(=O)[C@@H](N)Cc1c[nH]cn1)[C@@H](C)O)C(=O)N[C@@H](CCC(=O)O)C(=O)N[C@@H](C)C(=O)N[C@@H](C)C(=O)N[C@@](C)(CCCCN)C(=O)N[C@@H](CCC(=O)O)C(=O)N[C@@H](Cc1ccccc1)C(=O)N[C@H](C(=O)N[C@@H](CCCCNC(=O)COCCOCCNC(=O)COCCOCCNC(=O)CC[C@H](NC(=O)CCCCCCCCCCC)C(=O)O)C(=O)N[C@@H](Cc1ccccc1)C(=O)N[C@H](C(=O)N[C@H](C(=O)N[C@@H](CCC(=O)O)C(=O)NCC(=O)NCC(N)=O)C(C)C)C(C)C)[C@@H](C)CC)C(=O)O` [compound 439]: the negative logarithm of the EC50 (pEC50) (Primary assay EC50 GLP-1R n1, Table 11, tris-lipidated peptides, replicate n1) was 10.22 and the pEC50 (Primary assay EC50 GLP-1R n2, Table 11, tris-lipidated peptides, replicate n2) is 9.87. Besides, it took 97 pM to reach a half-maximal effect (Primary assay EC50 Mean pM GLP-1R, Table 11, tris-lipidated peptides, mean of n1 and n2) (EC50).
